Data: patent US6500843B2, “Inhibitors of rotamase enzyme activity” (GPI NIL Holdings, Inc., priority 1995, dated 2002)

Chains of the proteins cited; added tags and fusions are not shown.
UniProt P62942, whole entry: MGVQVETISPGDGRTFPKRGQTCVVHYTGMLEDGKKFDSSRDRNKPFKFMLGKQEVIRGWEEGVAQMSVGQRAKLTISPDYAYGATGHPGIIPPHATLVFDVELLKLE

Assays:
[1] = system: Sprague-Dawley rats, sciatic nerve crush; assay: Sciatic nerve axotomy (crush) model of nerve regeneration; settings: 30 mg/kg s.c. daily, 18 days after lesion
recombinant FKBP-12 = recombinant FKBP-12 (Homo sapiens, UniProt P62942); assay: Inhibition of 3H-FK506 binding to recombinant FKBP-12; settings: read-out: [3H]-FK506-FKBP12 (IC50); Table 3

Compound: CCC(C)(C)C(=O)C(=O)N1CCCCC1C(=O)OCCCc1ccccc1 (stereo not drawn)
- Axon Number (% Control) [1]: 75 % Control
- Myelin Level [1]: 35
- IC50 (recombinant FKBP-12): 8 µM
